Laboratory results taken from patent US9828374B2, “Substituted pyrazino[2,2-a]isoquinoline derivatives” (Hoffmann-La Roche Inc., priority 2014, dated 2017).

The chains behind the UniProt entries cited, without tags or fusion partners.
UniProt Q923Y8, whole entry: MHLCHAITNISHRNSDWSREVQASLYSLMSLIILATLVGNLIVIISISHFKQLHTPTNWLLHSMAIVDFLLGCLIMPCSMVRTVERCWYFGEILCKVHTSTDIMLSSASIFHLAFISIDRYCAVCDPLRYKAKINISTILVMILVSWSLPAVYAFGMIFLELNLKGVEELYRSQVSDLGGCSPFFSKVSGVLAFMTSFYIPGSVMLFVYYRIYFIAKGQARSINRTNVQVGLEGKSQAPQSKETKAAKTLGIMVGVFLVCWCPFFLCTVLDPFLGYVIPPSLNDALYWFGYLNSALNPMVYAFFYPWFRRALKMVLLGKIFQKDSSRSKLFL
UniProt Q923Y9, whole entry: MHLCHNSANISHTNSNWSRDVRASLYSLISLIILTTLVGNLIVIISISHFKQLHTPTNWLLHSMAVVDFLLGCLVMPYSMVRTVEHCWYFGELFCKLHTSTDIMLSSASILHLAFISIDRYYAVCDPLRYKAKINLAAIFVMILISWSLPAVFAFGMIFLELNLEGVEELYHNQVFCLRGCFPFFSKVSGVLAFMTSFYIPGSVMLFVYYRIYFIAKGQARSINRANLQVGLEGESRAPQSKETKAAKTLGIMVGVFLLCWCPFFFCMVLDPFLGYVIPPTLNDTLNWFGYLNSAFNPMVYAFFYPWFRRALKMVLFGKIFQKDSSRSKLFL

How the values were obtained:
mouse TAAR1 = mouse TAAR1 (Mus musculus (Mouse), UniProt Q923Y8); test: Radioligand binding assay on mouse TAAR1; details: mouse TAAR1, HEK-293 membranes; first value of the mouse/rat pair
Method: (§1) Construction of TAAR Expression Plasmids and Stably Transfected Cell Lines
(§2) For the construction of expression plasmids the coding sequences of human, rat and mouse TAAR 1 were amplified from genomic DNA essentially as described by Lindemann et al..
(§3) The Expand High Fidelity PCR System (Roche Diagnostics) was used with 1.5 mM Mg^2+ and purified PCR products were cloned into pCR2.1-TOPO cloning vector (Invitrogen) following the instructions of the manufacturer. PCR products were subcloned into the pIRESneo2 vector (BD Clontech, Palo Alto, Calif.), and expression vectors were sequence verified before introduction in cell lines.
(§4) HEK293 cells (ATCC # CRL-1573) were cultured essentially as described by Lindemann et al. (2005). […]
(§5) HEK-293 cells stably expressing mouse TAAR1 were maintained at 37° C. and 5% CO2 in DMEM high glucose medium, containing fetal calf serum (10%, heat inactivated for 30 min at 56° C.), penicillin/streptomycin (1%), and 375 μg/ml geneticin (Gibco). […] With each new membrane batch the dissociation constant (Kd) was determined via a saturation curve. […] After addition of 45 μl of Microscint 40 (PerkinElmer) the Unifilter-96 plate was sealed and after 1 hr the radioactivity counted using a TopCount Microplate Scintillation Counter (Packard Instrument Company).

rat TAAR1 = rat TAAR1 (Rattus norvegicus (Rat), UniProt Q923Y9); test: Radioligand binding assay on rat TAAR1; details: rat TAAR1, HEK-293 membranes; second value of the mouse/rat pair
Method: as §1, §2, §3, §4
as §5, with “rat” for “mouse”

`CCc1cnc(Nc2ccc3c(c2)CCN2CCNC[C@@H]32)nc1` [Example 25, (11bR)-N-(5-ethylpyrimidin-2-yl)-2,3,4,6,7,11b-hexahydro-1H-pyrazino[2,1-a]isoquinolin-9-amine] was tested, and the Ki (mouse TAAR1) was 0.0349 µM and the Ki (rat TAAR1) was 0.0438 µM.
